# scFv variants of Ab-14 (heavy chain) against a SARS-CoV-2 spike peptide

Source: Engelhart et al. 2022 (doi:10.1038/s41597-022-01779-4), MIT Lincoln Laboratory and A-Alpha Bio; data file from the FLAb repository.

All variants were tested on one target, the spike HR2 peptide PDVDLGDISGINAS (SARS-CoV-2).

Ab-14 is the parent antibody, in scFv form: VH, then three GGGGS repeats, then VL. The light chain is unchanged in all variants.
VH: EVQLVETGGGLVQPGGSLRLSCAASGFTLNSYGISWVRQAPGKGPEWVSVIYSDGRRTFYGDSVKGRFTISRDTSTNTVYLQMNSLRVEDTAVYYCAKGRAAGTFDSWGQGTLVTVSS
VL: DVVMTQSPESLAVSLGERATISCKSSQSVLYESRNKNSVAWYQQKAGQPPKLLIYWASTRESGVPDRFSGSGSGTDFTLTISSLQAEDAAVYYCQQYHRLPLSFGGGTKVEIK

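The starting antibody came from a phage panning campaign against this peptide. Variants in AAYL49 differ from the parent at up to three CDR positions; double and triple changes were sampled at random. Affinity was read by AlphaSeq, a pooled yeast mating assay with surface-displayed partners. The frequency of each diploid, read from paired DNA barcodes, reflects how well the two displayed proteins bind. Each replicate has its own calibration line, from reference interactions of the BCL2 family. Each pool was mated in three replicate cultures.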

Variants are written as CDR1, CDR2 and CDR3 of the heavy chain (limits as in the source). Parent: GFTLNSYGIS, VIYSDGRRTFYGDSVK, GRAAGTFDS. Values are log10 of the apparent Kd in nM; lower means stronger binding. The mean shown is taken over the replicates in which the pair was detected. "ND" means that the variant was in the library but no mating with the target was seen in that replicate; the authors take this as a sign of poor binding, and no number exists. Nonspecific signal, from three strains lacking the peptide, appeared in 15% of pairings of library AAYL49, centred on 4.06 (5% of these signals below 2.83); values are not corrected for it. The control count says in how many pairings with the empty strains this scFv gave a signal, with their mean in brackets. For reference, the parent read 0.65 as the reference entry and 4.11 (one replicate of three) as a member of this library.

| CDR-H1 | CDR-H2 | CDR-H3 | log10 Kd (nM) by replicate | mean log10 Kd (nM) | empty controls |
|---|---|---|---|---|---|
| GFTLNSYGIS | VIYSDGRRTFPGDSVK | GRAAGTTDS | ND / 3.79 / ND | 3.79 | 2/9 (4.24) |
| GFTLNSYGIS | VIYSDGRITFYGDSVK | GRAAGTFIS | ND / ND / ND | ND | 1/9 (3.24) |
| GFTLNSYWIS | VIYSDGRRWFYGDSVK | GRAAQTFDS | ND / 3.61 / 3.67 | 3.64 | 1/9 (4.25) |
| GFTLNSYGIS | VIYSDERRTIYGDSKK | GRAAGTFDS | 4.67 / ND / ND | 4.67 | 1/9 (3.02) |
| GFWLNSYGIS | VIYSDGRRTPYGDSVK | GRAAGEFDS | ND / ND / ND | ND | 0/9 |
| GFTLNSYGIS | VEYSDVRYTFYGDSVK | GRAAGTFDS | ND / ND / ND | ND | 0/9 |
| GFTLNSYGIS | VIYSDGRRTFYGNSVK | GRAAGIFDV | 1.36 / 1.12 / 1.21 | 1.23 | 2/9 (3.20) |
| GFTLNSLGIS | VIYSDGVRRFYGDSVK | GRAAGTFDS | 2.48 / 2.82 / 3.37 | 2.89 | 0/9 |
| GFTLNSYGIY | VIYSDGRRTFYPDSVK | GRAAGTFDF | ND / ND / 5.19 | 5.19 | 4/9 (4.99) |
| GFTGNSYGIS | VIYSDGRFTFYGDSHK | GRAAGTFDS | ND / ND / ND | ND | 0/9 |
| GFTLNSYGGS | VIYSDGRRTFYGDSVK | GRAAGTSDY | 4.89 / ND / 3.96 | 4.42 | 3/9 (4.25) |
| GFTLWSYGIS | VIMSDGRRTFYGDSVK | GRAAGGFDS | ND / ND / ND | ND | 1/9 (5.07) |
| GFTLNGYGVS | VIYSDGRRTFYGDWVK | GRAAGTFDS | ND / ND / ND | ND | 0/9 |
| GFTLNKYGIS | VIYSDGRRTGYGSSVK | GRAAGTFDS | 0.96 / 1.34 / 1.18 | 1.16 | 3/9 (2.67) |
| GFTLNSYGIS | VIFSDGRRTFYGDSVK | DRAAGAFDS | ND / ND / ND | ND | 0/9 |
| GFTLNSYGIS | VIYSDGRRTVYGDSNK | GRAAGNFDS | ND / ND / ND | ND | 0/9 |
| GFTLNSYGSS | VIYSDGRRHFYGDSVK | GRKAGTFDS | ND / 4.34 / 4.41 | 4.37 | 3/9 (3.70) |
| GFTLNSYGIS | RIDSDGRRTFYGDSVK | GRAAGTFDS | ND / ND / ND | ND | 1/9 (2.81) |
| GFTLNSEGIS | MIYSDPRRTFYGDSVK | GRAAGTFDS | 4.63 / ND / 5.70 | 5.17 | 1/9 (5.12) |
| GFTLNSYGIS | VIYSDGRRTFYGDMVK | GRAIGTFDL | 3.32 / 4.18 / 4.64 | 4.05 | 2/9 (4.74) |
| KTTLNSYGIS | VIYSDGRRTFYGDSVK | GRAAGTFFS | 2.10 / 1.92 / 2.28 | 2.10 | 4/9 (4.20) |
| SKTLNSYGIS | VIYSDGRRTFYGDSVK | GRAAGTFDS | 1.38 / 1.64 / 1.83 | 1.62 | 0/9 |
| GFTLNSYGIE | VSYTDGRRTFYGDSVK | GRAAGTFDS | 3.97 / ND / ND | 3.97 | 0/9 |
| WFTLNSYGIS | IIYSDGRRSFYGDSVK | GRAAGTFDS | ND / ND / ND | ND | 0/9 |
| GFTLNLYGIS | VIYSDGRRTFYGDSVK | GRAAGLFHS | ND / ND / ND | ND | 2/9 (3.85) |
| GFTLNSYGIS | VIYSGGFLTFYGDSVK | GRAAGTFDS | ND / 5.00 / 4.40 | 4.70 | 6/9 (4.23) |
| GFTLNSYGIS | VIYSDGWRTFYGDSVF | GRGAGTFDS | ND / ND / 5.36 | 5.36 | 2/9 (4.49) |
| GFTLNSYGPS | VIYSDGRRTFYEDSVK | GRAAGTFKS | ND / ND / ND | ND | 0/9 |
| GFTLLSHGIS | VIYSDGRRTFYGDSVK | GRYAGTFDS | ND / ND / ND | ND | 0/9 |
| GFYLNSYGIS | VIYPDGRRTFYGDSVK | GRAAGTFDW | ND / ND / 2.48 | 2.48 | 0/9 |
| GFTLNHYGIS | WIYGDGRRTFYGDSVK | GRAAGTFDS | 5.42 / ND / ND | 5.42 | 0/9 |
| GYTLNSYGIS | VIYSDGRRTTYGDSVK | GRAAGTRDS | ND / ND / ND | ND | 3/9 (4.83) |
| GFTLNMYGIS | VISSDGRRTFYGDSVK | GRAAGTFDS | 3.20 / 3.16 / 3.40 | 3.25 | 6/9 (4.53) |
| GFTLNSYSIS | VIYSDGRRTFYGDSVK | GRAAGGFSS | ND / 4.35 / ND | 4.35 | 1/9 (4.89) |
| GFTLNSYGIV | VIYQDGRRTFYGDGVK | GRAAGTFDS | ND / ND / ND | ND | 1/9 (4.50) |
| GATLNSYGIS | VIYSDGVRTFYMDSVK | GRAAGTFDS | ND / 5.43 / ND | 5.43 | 4/9 (4.55) |
| GFTLNSYGIS | VIYSDGRRTFYGDSVK | GRKANLFDS | ND / ND / ND | ND | 0/9 |
| GFTLNSYGDS | VIYSDMRRTAYGDSVK | GRAAGTFDS | ND / ND / ND | ND | 0/9 |
| TFTLNSYGIS | VIYEDGRGTFYGDSVK | GRAAGTFDS | 3.38 / 4.19 / 3.89 | 3.82 | 2/9 (4.80) |
| GFTLNSYGIS | QIYSDGRRTFYGDHVK | GRVAGTFDS | ND / ND / 4.47 | 4.47 | 1/9 (5.17) |
| GFTLVSYWIS | VIYSDGRRTFYGDSVK | GRAAGTFDS | ND / ND / ND | ND | 0/9 |
| GFQLNSYGIS | PIYSDGRRTFYGDSVK | GRAAGTFDS | 4.47 / 4.54 / 5.24 | 4.75 | 6/9 (5.09) |

Again, the first 3 entries without any signal:

CDR-H1,CDR-H2,CDR-H3,log10 Kd (nM) by replicate,mean log10 Kd (nM),empty controls
GFTLNSYGIS,VIYSDGRITFYGDSVK,GRAAGTFIS,ND / ND / ND,ND,1/9 (3.24)
GFWLNSYGIS,VIYSDGRRTPYGDSVK,GRAAGEFDS,ND / ND / ND,ND,0/9
GFTLNSYGIS,VEYSDVRYTFYGDSVK,GRAAGTFDS,ND / ND / ND,ND,0/9